Assay results reported in publication PMC2603005, “Structural insights into phenylethanolamines high-affinity binding site in NR2B from binding and molecular modeling studies” (Molecular Brain, 2008).

Amino acid sequences for entries named in this document (tags omitted). Residues count along the entry.
UniProt Q00960, 27-393: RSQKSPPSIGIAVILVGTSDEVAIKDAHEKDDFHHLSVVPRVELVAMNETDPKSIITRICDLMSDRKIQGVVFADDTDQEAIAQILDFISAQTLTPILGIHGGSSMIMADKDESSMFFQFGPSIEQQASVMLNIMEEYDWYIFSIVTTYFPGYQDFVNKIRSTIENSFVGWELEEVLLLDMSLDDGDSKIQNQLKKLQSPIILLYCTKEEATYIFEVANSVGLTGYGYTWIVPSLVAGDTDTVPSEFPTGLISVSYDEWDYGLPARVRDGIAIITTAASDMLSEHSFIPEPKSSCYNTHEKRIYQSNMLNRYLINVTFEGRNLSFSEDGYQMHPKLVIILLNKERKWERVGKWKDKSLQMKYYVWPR

Biological target: 6 × His-ATD2B (amino-terminal domain of NR2B subunit), wild type (Rattus norvegicus, UniProt Q00960)

Ratio of KD(ifenprodil) to KD(RO25,6981): ~ 9 fold
SMILES: C[C@@H](CN1CCC(Cc2ccccc2)CC1)[C@@H](O)c1ccc(O)cc1 [RO25,6981]
